Results taken from patent US20200009275A1, “PIGMENT-COUPLED MANNOSYL SERUM ALBUMIN COMPLEX AND LYMPH NODE-PROBING COMPOSITION COMPRISING SAME” (priority 2017, published 2020).

Protein sequences, listed by entry. Tags and fused reporters are not part of them. Residues count along the entry.
UniProt P02768, 25-609: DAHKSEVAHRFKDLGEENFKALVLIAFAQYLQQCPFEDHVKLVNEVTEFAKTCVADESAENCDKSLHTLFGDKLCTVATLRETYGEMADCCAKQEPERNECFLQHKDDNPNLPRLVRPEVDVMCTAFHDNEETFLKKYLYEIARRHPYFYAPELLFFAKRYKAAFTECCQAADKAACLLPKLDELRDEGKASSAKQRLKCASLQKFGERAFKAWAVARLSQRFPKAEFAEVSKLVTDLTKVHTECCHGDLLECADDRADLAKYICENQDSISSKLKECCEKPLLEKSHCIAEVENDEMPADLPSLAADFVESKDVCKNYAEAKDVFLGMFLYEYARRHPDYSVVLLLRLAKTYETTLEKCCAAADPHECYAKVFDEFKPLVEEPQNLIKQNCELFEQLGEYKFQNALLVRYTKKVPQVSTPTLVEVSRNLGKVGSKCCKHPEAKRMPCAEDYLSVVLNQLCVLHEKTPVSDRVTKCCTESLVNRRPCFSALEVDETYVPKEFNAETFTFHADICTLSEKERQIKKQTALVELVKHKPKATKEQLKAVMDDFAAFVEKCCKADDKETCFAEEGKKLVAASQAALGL

Legend:
[1] = molecular target: T1, MSA (Homo sapiens, UniProt P02768); assay: TLC measurement of pigment not coupled to MSA; type: binding
T1 construct: purchased Green Cross Corp., Korea
Experimental: 2 ml of 200 mg/mL MSA was added thereto to prepare the reaction mixture in total volume of 3 mL. […]
Upon completion of the reaction, the amount of the pigment not coupled to MSA was measured by performing thin layer chromatography (TLC) with the pigment-coupled MSA hourly. At this time, methanol and methylene chloride (MeOH:MeCl2) mixture was used as a solvent and the results were quantitatively analyzed by multi-gauge 3.0 software using LAS3000 (Fuji Film).

[2] = Absorption peak and molecular extinction coefficient of pigment-coupled MSA; type: physicochemical; settings: for Wavelength (absorption peak): scan 350 nm to 850 nm
Experimental: The pigment-coupled MSA solution was loaded in a 96-well plate, which was scanned with visible light ranging between 350 nm and 850 nm to measure the absorbance at the peak of absorption spectrum using Varioskan Flash (Thermo Fisher Scientific Inc., Finland) spectrometer. The molecular extinction coefficient was measured by calculating the absorbance per 1 cm length according to Beer-Lambert law.

[3] = test system: mouse popliteal lymph node; assay: Lymph node probing effect of pigment and Tc-99m labeled MSA in an animal model; type: in vivo; settings: mice
[4] = 35 μl subcutaneously into the soles, naked eye and SPECT/CT

## CCOc1ccc(Nc2ccc(/C(=C3C=C/C(=[N+](/CC)Cc4cccc(S(=O)(=O)[O-])c4)C=C/3C)c3ccc(N(CC)Cc4cccc(S(=O)(=O)[O-])c4)cc3C)cc2)cc1.[Na+] [BG, brilliant blue G]
[1]; 10 min
  Percentage of pigment not coupled to MSA: 0.0 ± 0.0%
[1]; 30 min
  Percentage of pigment not coupled to MSA: 0.0 ± 0.0%
[1]; 1 hr
  Percentage of pigment not coupled to MSA: 0.0 ± 0.0%
[1]; 2 hr
  Percentage of pigment not coupled to MSA: 0.0 ± 0.0%
[1]; 6 hr
  Percentage of pigment not coupled to MSA: 0.0 ± 0.0%
[1]; 24 hr
  Percentage of pigment not coupled to MSA: 0.0 ± 0.0%
[1]; Table 2
  Binding of pigment to MSA (in words): bind stably and strongly to MSA
[2]; at absorption peak, per 1 cm, Beer-Lambert law
  ε (molecular extinction coefficient): 61852
[2]
  Wavelength (absorption peak): 620 nm

## reactive blue 4 [RB4]
[2]
  Wavelength (absorption peak): 600 nm

## EB-coupled Tc-99m-MSA: Evans blue-coupled MSA mixed with Tc-99m labeled MSA, prepared in Example 4
[3]; [4]
  Time after administration at which pigment and radioactivity were condensed in the popliteal lymph node: 10 min
  Time for which condensation in the popliteal lymph node continued: 4 h
[3]; subcutaneous injection
  Lymph node probing effect (in words): effective agent for probing the lymph node

## patent blue VF [PBVF]
[2]
  Wavelength (absorption peak): 640 nm
